Target: T1, GST-CIB1 : F-αIIb peptide (Homo sapiens, UniProt Q99828)
T1 construct: made in house; host or cells: BL-21 plus RIL cells (E. coli)
T1 sequence (Q99828 1-191): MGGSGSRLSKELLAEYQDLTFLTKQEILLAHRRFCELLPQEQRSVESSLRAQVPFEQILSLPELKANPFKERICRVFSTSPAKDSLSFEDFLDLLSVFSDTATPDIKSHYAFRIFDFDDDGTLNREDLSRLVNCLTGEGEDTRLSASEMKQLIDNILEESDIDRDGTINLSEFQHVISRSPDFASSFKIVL
Assay: FP assay in the presence of glutathione (GSH), thiol reactivity
Type: binding

Structure (SMILES): O=C1C(I)=CC(=C(c2cc(I)c([O-])c(I)c2)c2ccccc2C(=O)[O-])C=C1I.[Na+].[Na+] [NCGC00161636-02]
- GSH/CIB1 IC50 ratio: 1.8

From PMC11249646, “Small-Molecule Disruptors of the Interaction between Calcium- and Integrin-Binding Protein 1 and Integrin αIIbβ3 as Novel Antiplatelet Agents” (ACS Pharmacology & Translational Science, 2024)
